Values quoted from earlier work, collected in patent publication US9517202B2, “Phospholipid depot” (LATITUDE PHARMACEUTICALS INC., priority 2009, dated 2016).

Conditions: in vivo; cited from earlier work

In the case of insulin, the “half-life in the circulation” value is listed as 5 to 6 min.
